Experimental findings from patent US7635685B2 (priority 2003, dated 2009) are described below.

The subject of assay [1] is 27-mer 16S A site RNA construct (AS-wt). The assay is described as follows: surface plasmon resonance (SPR) binding to immobilized 16S A site RNA. The following applies: immobilized 27-mer 16S A site RNA construct (AS-wt), tested form: sulfate.
In a further assay the test system is Bacillus subtilis. Put plainly: MIC microdilution assay against Bacillus subtilis. In kind it is cell-based. The following applies: tested form: sulfate; for MIC: Bacillus subtilis (ATCC 6633).

Each structure is given as a SMILES string. pKd: −log10 of the molar value.

Regarding `NC[C@@H]1O[C@H](O[C@H]2[C@@H](O)[C@H](O[C@@H]3[C@@H](O)[C@H](N)C[C@H](N)[C@H]3O[C@H]3O[C@H](CN)[C@@H](O)[C@H](O)[C@H]3N)O[C@@H]2CS)[C@H](N)[C@@H](O)[C@@H]1O`, the pKd in assay [1] is 5.54. The MIC in the assay on Bacillus subtilis was in the range of 10 to 11 µg/mL.

`NC[C@@H]1O[C@H](O[C@H]2[C@@H](O)[C@H](O[C@@H]3[C@@H](O)[C@H](N)C[C@H](N)[C@H]3O[C@H]3O[C@H](CN)[C@@H](O)[C@H](O)[C@H]3N)O[C@@H]2CO[C@@H]2O[C@H](CN)[C@@H](O)[C@H]2O)[C@H](N)[C@@H](O)[C@@H]1O` showed a pKd in assay [1] of 6.15. Further, in the assay with Bacillus subtilis, the MIC lay within 5 to 7 µg/mL.

In turn, `NC[C@@H]1O[C@H](O[C@H]2[C@@H](O)[C@H](O[C@@H]3[C@@H](O)[C@H](N)C[C@H](N)[C@H]3O[C@H]3O[C@H](CN)[C@@H](O)[C@H](O)[C@H]3N)O[C@@H]2CO[C@@H]2O[C@H](CO)[C@@H](N)[C@H](O)[C@H]2O)[C@H](N)[C@@H](O)[C@@H]1O` had a pKd in assay [1] of 6.15. Moreover, in the assay on Bacillus subtilis, the MIC was in the range of 6 to 7 µg/mL.

Compound `NC[C@@H]1O[C@H](O[C@H]2[C@@H](O)[C@H](OC[C@H]3O[C@@H](O[C@@H]4[C@@H](O)[C@H](N)C[C@H](N)[C@H]4O[C@H]4O[C@H](CN)[C@@H](O)[C@H](O)[C@H]4N)[C@H](O)[C@@H]3O[C@H]3O[C@@H](CN)[C@@H](O)[C@H](O)[C@H]3N)O[C@@H]2CO)[C@H](N)[C@@H](O)[C@@H]1O` showed a pKd in assay [1] of 5.72. This compound also had an MIC in the assay on Bacillus subtilis of 5 to 10 µg/mL.

In the case of `NC[C@@H]1O[C@H](O[C@H]2[C@@H](O)[C@H](O[C@@H]3[C@@H](O)[C@H](N)C[C@H](N)[C@H]3O[C@H]3O[C@H](CN)[C@@H](O)[C@H](O)[C@H]3N)O[C@@H]2CO[C@@H]2O[C@H](CO)[C@@H](O)[C@H]2O)[C@H](N)[C@@H](O)[C@@H]1O`, the pKd in assay [1] is 6.15. In addition, the “antibacterial activity against Bacillus subtilis” value with Bacillus subtilis was “effective”.

`NC[C@@H]1O[C@H](O[C@H]2[C@@H](O)[C@H](O[C@@H]3[C@@H](O)[C@H](N)C[C@H](N)[C@H]3O[C@H]3O[C@H](CN)[C@@H](O)[C@H](O)[C@H]3N)O[C@@H]2CO[C@@H]2O[C@H](CN)[C@@H](N)[C@H](O)[C@H]2O)[C@H](N)[C@@H](O)[C@@H]1O` gave a pKd in assay [1] of 5.89. Besides, the MIC against Bacillus subtilis fell in the range of 3.5 to 4 µg/mL.

Regarding `NC[C@@H]1O[C@H](O[C@H]2[C@@H](O)[C@H](O[C@@H]3[C@@H](O)[C@H](N)C[C@H](N)[C@H]3O[C@H]3O[C@H](CN)[C@@H](O)[C@H](O)[C@H]3N)O[C@@H]2CO[C@@H]2O[C@H](CN)[C@@H](O)[C@H](O)[C@H]2N)[C@H](N)[C@@H](O)[C@@H]1O`, the pKd in assay [1] was 6.22. For the same compound, the MIC against Bacillus subtilis is 5 to 7 µg/mL.

With `NC[C@@H]1O[C@H](O[C@H]2[C@@H](O)[C@H](O[C@@H]3[C@@H](O)[C@H](N)C[C@H](N)[C@H]3O[C@H]3O[C@H](CN)[C@@H](O)[C@H](O)[C@H]3N)O[C@@H]2CO[C@@H]2O[C@H](CO)[C@@H](O)[C@H](O)[C@H]2N)[C@H](N)[C@@H](O)[C@@H]1O`, the pKd in assay [1] was 6.05.

Consider `NC[C@@H]1O[C@H](O[C@H]2[C@@H](O)[C@H](O[C@@H]3[C@@H](O)[C@H](N)C[C@H](N)[C@H]3O[C@H]3O[C@H](CN)[C@@H](O)[C@H](O)[C@H]3N)O[C@@H]2CO[C@@H]2O[C@H](CO)[C@@H](N)[C@@H](N)[C@H]2O)[C@H](N)[C@@H](O)[C@@H]1O`, for which the pKd in assay [1] was 5.70. The compound further had an MIC with Bacillus subtilis of 8.5 to 10 µg/mL.
